Measurements as given in patent USRE36397E, “Inhibitors of poly(ADP-ribose) synthetase and use thereof to treat NMDA neurotoxicity” (The John Hopkins University, priority 1998, dated 1999).

Chains of the proteins cited; added tags and fusions are not shown.
UniProt P27008, whole entry: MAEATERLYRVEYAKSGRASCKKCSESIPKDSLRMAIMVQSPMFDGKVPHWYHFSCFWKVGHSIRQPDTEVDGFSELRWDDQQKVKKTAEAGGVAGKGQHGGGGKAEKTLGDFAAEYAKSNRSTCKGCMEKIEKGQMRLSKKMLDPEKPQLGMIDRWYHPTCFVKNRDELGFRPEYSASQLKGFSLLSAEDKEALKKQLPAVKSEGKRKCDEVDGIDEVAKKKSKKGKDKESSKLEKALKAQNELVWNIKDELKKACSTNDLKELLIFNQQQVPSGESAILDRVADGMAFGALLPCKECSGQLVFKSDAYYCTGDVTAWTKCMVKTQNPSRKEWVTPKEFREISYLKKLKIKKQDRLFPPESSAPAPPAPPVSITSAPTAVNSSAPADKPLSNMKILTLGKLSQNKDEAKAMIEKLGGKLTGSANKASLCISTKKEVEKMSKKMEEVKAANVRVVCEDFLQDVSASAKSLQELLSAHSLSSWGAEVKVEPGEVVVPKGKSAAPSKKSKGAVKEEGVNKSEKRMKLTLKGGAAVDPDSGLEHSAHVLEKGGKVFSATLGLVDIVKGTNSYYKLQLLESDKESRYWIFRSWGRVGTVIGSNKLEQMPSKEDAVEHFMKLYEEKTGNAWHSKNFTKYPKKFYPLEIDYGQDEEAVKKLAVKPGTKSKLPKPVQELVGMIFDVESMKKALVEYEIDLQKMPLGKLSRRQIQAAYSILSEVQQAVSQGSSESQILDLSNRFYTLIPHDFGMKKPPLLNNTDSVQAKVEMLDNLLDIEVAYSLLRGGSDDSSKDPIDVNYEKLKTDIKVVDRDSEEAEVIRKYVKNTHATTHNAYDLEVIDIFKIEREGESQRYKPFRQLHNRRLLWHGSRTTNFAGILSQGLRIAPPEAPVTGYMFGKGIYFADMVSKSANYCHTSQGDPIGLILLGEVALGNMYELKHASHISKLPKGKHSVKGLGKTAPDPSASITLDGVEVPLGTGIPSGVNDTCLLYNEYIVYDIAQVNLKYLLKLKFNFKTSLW

Legend:
brain NOS = assay: Nitrite formation in human kidney 293 cells stably transfected with brain NOS cDNA; format: cell-based; details: for effect on NOS / stimulated nitrite levels: 100 μM
Description: To ascertain whether NO itself elicits neurotoxicity by activation of PARS, we administered the NO releasers SNP and S-nitroso-N-acetylpenicillamine (SNAP). Benzamide (100 μM) reduced SNP and SNAP neurotoxicity by 45% to 50% (FIG. 2). […] In human kidney 293 cells stably transfected with the cDNA of brain. NOS, stimulated levels of nitrite, an indirect measure of NO production, were not affected by 100 μM benzamide, but were abolished by nitroarginic.

PARS = details: family of benzamide and its derivatives, relative to benzamide; cited from earlier work
[1] = target: PARS (poly(ADP-ribose) synthetase) (Rattus norvegicus, UniProt P27008); assay: PARS activity in rat brain nuclear extracts; format: biochemical; details: benzamide 100 μM
Excerpt: Inhibitors of poly(ADP-ribose) synthetase are compounds which compete for the substrate binding site of poly(ADP-ribose) synthetase or other sites on the enzyme, and include both reversible and irreversible inhibitors. The present invention contemplates the use of any physiologically acceptable inhibitor which inhibits poly(ADP-ribose) synthetase activity. The effectiveness of a compound, and its relative potency as a poly(ADP-ribose) synthetase inhibitor, can be tested and routinely determined by measuring inhibition of poly(ADP-ribose) synthetase activity. Poly(ADP-ribose) synthetase activity can be assayed according to the method of Schranfstatter, et al., J. Clin. Inves. 77, 1312 (1986).
Whole brains from 1-day old rats were homogenized in 20% (w/v) buffer A [50 mM Tris-HCl (pH 7.4), 1 mM EDTA, 1 mM DTT, 50 mM NaCl, 0.25M sucrose, 0.2 mM phenylmethylsulfonyl fluoride, 1 μg/ml each of chymostatin, leupeptin, pepstatin and trypsin inhibitor]. The homogenate was centrifuged at 1000 g for 15 min. The pellet was washed with buffer A and centrifuged again. The washed pellet, termed nuclear fraction, was resuspended in buffer A. PARS activity was assayed according to I. U. Schranfstatter, et al., J. Clin. Inves. 77, 1312 (1986). Each 50 μl assay mixture contained 10 μg of the nuclear protein fraction and [adenylate-^32 P]

NC(=O)c1ccccc1 [benzamide]
effect on NOS / stimulated nitrite levels (brain NOS): not affected | effect on NOS / stimulated nitrite levels (brain NOS; listed as Benzamide): does not inhibit NOS | nitrite formation (brain NOS; A23187 (10 μM), 2 hr, inhibitors 100 μM, n=3): 15.9±3.8 μM nitrite | relative potency as PARS inhibitor (in words) (PARS): most active | inhibition of poly(ADP-ribose) synthesis stimulated by SIN-1- or SNP-treated DNA [1]: inhibited
